Values of other authors as cited in US20150374767A1, “Treatment of Cancer” (priority 2013, published 2015).

The chains behind the UniProt entries cited, without tags or fusion partners. Residues count along the entry.
UniProt P09619, 33-1106: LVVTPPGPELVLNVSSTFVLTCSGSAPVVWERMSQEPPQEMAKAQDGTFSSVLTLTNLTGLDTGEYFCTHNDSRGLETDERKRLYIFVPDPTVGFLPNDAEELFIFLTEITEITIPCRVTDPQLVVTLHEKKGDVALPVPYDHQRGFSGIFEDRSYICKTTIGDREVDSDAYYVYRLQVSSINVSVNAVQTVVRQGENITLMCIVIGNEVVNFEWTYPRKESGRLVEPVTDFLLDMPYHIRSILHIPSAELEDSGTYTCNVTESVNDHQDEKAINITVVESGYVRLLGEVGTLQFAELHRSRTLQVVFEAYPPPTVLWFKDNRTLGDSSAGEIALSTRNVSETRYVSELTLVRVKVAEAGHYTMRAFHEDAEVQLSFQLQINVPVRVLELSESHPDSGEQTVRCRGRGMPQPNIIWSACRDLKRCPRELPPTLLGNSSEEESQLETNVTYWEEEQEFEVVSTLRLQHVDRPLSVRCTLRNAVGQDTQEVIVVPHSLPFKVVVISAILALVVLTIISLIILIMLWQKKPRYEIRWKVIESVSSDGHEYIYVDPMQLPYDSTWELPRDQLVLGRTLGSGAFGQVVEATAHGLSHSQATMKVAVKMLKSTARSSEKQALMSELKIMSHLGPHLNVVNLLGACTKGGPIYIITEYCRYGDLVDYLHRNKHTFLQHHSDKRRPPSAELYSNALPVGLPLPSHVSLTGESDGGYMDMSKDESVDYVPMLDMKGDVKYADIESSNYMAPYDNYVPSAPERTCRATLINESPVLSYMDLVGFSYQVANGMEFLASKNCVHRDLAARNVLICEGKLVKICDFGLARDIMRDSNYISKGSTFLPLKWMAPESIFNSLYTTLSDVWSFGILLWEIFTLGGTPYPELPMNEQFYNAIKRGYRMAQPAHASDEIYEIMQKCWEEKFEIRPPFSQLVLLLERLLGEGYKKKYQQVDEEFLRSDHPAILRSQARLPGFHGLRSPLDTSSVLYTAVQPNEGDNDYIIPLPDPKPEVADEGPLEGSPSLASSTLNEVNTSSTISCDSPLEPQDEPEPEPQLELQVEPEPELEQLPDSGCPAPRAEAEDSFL

Target: PDGFRβ (Homo sapiens, UniProt P09619)
Conditions: cited from earlier work

Substance: 1-amino-5-fluoro-3-(6-(4-methylpiperazin-1-yl)-1H-benzo[d]imidazol-2-yl)quinolin-2(1H)-one [Dovitinib]
- pIC50: 7.57

pIC50: −log10 of the molar value.
